Here are results for two substances from patent US7524826.

The target of assay [1] is plasma inhibitors. Briefly: sum of thrombin-inhibitor complexes in plasma on wild type T24/83 cells.
The target of assay [2] is heparin cofactor II of human plasma (human) (UniProt P05546). Briefly: ELISA of thrombin-heparin cofactor II complex, plasma on wild type T24/83 cells.
Assay [3] concerns the target α2 macroglobulin of human plasma (human) (UniProt P01023). Briefly: chromogenic assay after inhibiting free thrombin, plasma on wild type T24/83 cells.
The target of assay [4] is plasma inhibitors. Briefly: sum of thrombin-inhibitor complexes in plasma on GRP78/BiP overexpressing T24/83 cells.
Assay [5] deals with plasma inhibitors. Briefly: sum of thrombin-inhibitor complexes in plasma on vector-transfected (pcDNA) T24/83 cells.
In assay [6] the target is heparin cofactor II of human plasma (human) (UniProt P05546). Briefly: ELISA of thrombin-heparin cofactor II complex, plasma on GRP78/BiP overexpressing T24/83 cells.
The target is the same in assay [7]. Briefly: ELISA of thrombin-heparin cofactor II complex, plasma on vector-transfected (pcDNA) T24/83 cells.
In assay [8] the target is α2 macroglobulin of human plasma (human) (UniProt P01023). Briefly: chromogenic assay after inhibiting free thrombin, plasma on GRP78/BiP overexpressing T24/83 cells.
Assay [9] has the same target. Briefly: chromogenic assay after inhibiting free thrombin, plasma on vector-transfected (pcDNA) T24/83 cells.
In assay [10] the target is antithrombin of human plasma (human) (UniProt P01008). Briefly: ELISA of thrombin-antithrombin complex, plasma on wild type T24/83 cells.
For assay [11] the target is unchanged. Briefly: ELISA of thrombin-antithrombin complex, plasma on GRP78/BiP overexpressing T24/83 cells.
Assay [12] has the same target. Briefly: ELISA of thrombin-antithrombin complex, plasma on vector-transfected (pcDNA) T24/83 cells.

In the case of “thrombin generated from normal pooled human plasma (from UniProt P00734 328-622) (enzyme)”, the concentration of thrombin covalently bound to inhibitor with plasma inhibitors [1] worked out at 759 nM; in assay [2], 16 nM; in [3], 112 nM; with plasma inhibitors [4], 266 nM; with plasma inhibitors [5] it was 752 nM; in assay [6], 12 nM. Also, the concentration of thrombin covalently bound to inhibitor in [7] was 18 nM; in assay [8], 93 nM; in assay [9], 124 nM.

As to “thrombin generated from normal pooled human plasma (from UniProt P00734 328-622) (enzyme; other documents disagree on this pair)”, the values for the concentration of thrombin covalently bound to inhibitor in [10], in [11] and in assay [12] were 631 nM, 161 nM and 610 nM, respectively.
